Assay results as given in ChEMBL document CHEMBL3621126, “Difluoromethyl ketones: Potent inhibitors of wild type and carbamate-insensitive G119S mutant Anopheles gambiae acetylcholinesterase” (Bioorg Med Chem Lett, 2015).

By UniProt entry, the sequences of proteins in these tests, tags left out. Where a name states a change or a piece, a line headed by the entry shows the natural chain unless it says otherwise.
UniProt P22303: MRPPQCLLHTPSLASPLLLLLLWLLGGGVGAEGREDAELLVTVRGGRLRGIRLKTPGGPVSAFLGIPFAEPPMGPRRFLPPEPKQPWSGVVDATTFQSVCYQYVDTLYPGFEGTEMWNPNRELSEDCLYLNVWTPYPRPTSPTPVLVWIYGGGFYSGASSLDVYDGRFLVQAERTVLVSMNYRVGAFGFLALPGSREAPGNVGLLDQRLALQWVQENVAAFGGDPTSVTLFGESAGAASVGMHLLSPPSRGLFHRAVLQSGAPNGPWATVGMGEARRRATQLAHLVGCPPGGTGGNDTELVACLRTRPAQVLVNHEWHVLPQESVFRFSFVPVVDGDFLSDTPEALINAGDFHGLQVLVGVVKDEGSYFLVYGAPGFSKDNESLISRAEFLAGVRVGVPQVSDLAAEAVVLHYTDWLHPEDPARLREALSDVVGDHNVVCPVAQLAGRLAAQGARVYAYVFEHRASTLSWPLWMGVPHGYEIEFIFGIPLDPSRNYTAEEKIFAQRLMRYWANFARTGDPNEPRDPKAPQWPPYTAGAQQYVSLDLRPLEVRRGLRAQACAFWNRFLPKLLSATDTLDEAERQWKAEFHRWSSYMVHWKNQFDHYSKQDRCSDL

Key:
Acetylcholinesterase [1] = biological target: T1, Acetylcholinesterase (Homo sapiens, UniProt P22303); test: Inhibition of recombinant human AChE after 60 mins by Ellman assay
Acetylcholinesterase [2] = biological target: T1, Acetylcholinesterase; test: Inhibition of recombinant human AChE after 10 mins by Ellman assay
[3] = Inhibition of recombinant Anopheles gambiae AChE G119S mutant after 60 mins by Ellman assay

Structure (SMILES): CC(C)(C)c1cccc(C(=O)CF)c1
- IC50 (Acetylcholinesterase [1]): 715 nM
- IC50 (Acetylcholinesterase [2]): 578 nM
- IC50 [3]: > 10000 nM
